Results on one compound are retold here after article PMC6706711 (Iranian Journal of Pharmaceutical Research : IJPR, 2019).

Structures are written as SMILES. Marks after values point to notes of the source that are not given here.

A short description of series [1]: Individual pharmacokinetic parameters by renal function subgroup, post hoc empirical Bayesian approach. As to conditions: for CL / Vd / ke: SD.
[2] abbreviates: 30 ≤ GFR < 60 mL/min·1.73m2, N=20, mean ± SD.
The mark [3] stands for this setting: 60 ≤ GFR < 90 mL/min·1.73m2, N=24, mean ± SD.
Where [4] appears, read: GFR ≥ 90 mL/min·1.73m2, N=111, mean ± SD.
Setting [5] is: moderate renal insufficiency (30 ≤ GFR < 60) compared with normal renal function (GFR ≥ 90 mL/min·1.73m2).

In the case of `CN[C@H](CC(C)C)C(=O)N[C@H]1C(=O)N[C@@H](CC(N)=O)C(=O)N[C@H]2C(=O)N[C@H]3C(=O)N[C@H](C(=O)N[C@H](C(=O)O)c4cc(O)cc(O)c4-c4cc3ccc4O)[C@H](O)c3ccc(c(Cl)c3)Oc3cc2cc(c3O[C@@H]2O[C@H](CO)[C@@H](O)[C@H](O)[C@H]2O[C@H]2C[C@](C)(N)[C@H](O)[C@H](C)O2)Oc2ccc(cc2Cl)[C@H]1O` [vancomycin, Vancomycin], the “θ (L·h-1) (typical value for Weight=9 kg and CL GFR=121.5 mL/min·1.73m2), bootstrap median” value (1,000 bootstrap-resampled data sets) was determined as 0.98 L/h. In addition, the half-life estimate (typical population value, median weight 9 kg, median GFR 121.5 mL/min·1.73 m2) is 3.4 h. Besides, in series [1] (setting [2]), the CL is on record as 0.086±0.043 ^a ^b L·kg-1·h-1, the Vd was 0.66 ± 0.29 L/kg and the ke was 0.137±0.062 ^a ^b h-1. For the same compound, in series [1] (setting [3]), the CL stood at 0.131 ± 0.091 L/kg/h, the Vd is 0.68 ± 0.43 L/kg and the ke was 0.195±0.072 ^a h-1. Besides, in series [1] (setting [4]), the CL was 0.142 ± 0.059 L/kg/h, the Vd turned out to be 0.65 ± 0.27 L/kg and the ke was 0.238 ± 0.090 h⁻¹. For the same compound, in series [1] (setting [5]), the clearance decrease was 39.4%, the “elimination rate constant decrease” value worked out at 42.4% and the half life increase was 1.74 fold.
